An excerpt weighted towards active compounds, which were near 16% of everything screened.
miR-21 reporter = raises the signal of a miR-21 reporter | HeLa miR-21 FLuc reporter, luciferase, 48 h | Potency, µM (highest dose often 38.3 µM), inactives show at the highest dose reporter change, positive = more light | 340,000 tested, under 10 active | AID 2288; active = well fitted rising curve with a large enough effect; inconclusive = small, poorly fitted or top-dose-only effect; inactive = no such curve, though single readings can be large or run the other way;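 note: % of control where 0% means no effect; miR-21 action dims this reporter so a rising signal means less miR-21 action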
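HeLa cells endogenously expressing miR-21, stably carrying CMV-driven firefly luciferase with a downstream miR-21 binding site, 2000 cells/well. Titrations up to approximately 40 uM, 48 hours; luciferase luminescence read.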
TDP1 block = blocks human tyrosyl-DNA phosphodiesterase 1; Q9NUW8; recombinant TDP1, AlphaScreen DNA substrate cleavage; Potency, µM (series often up to 130 µM), inactives show at the highest dose activity change, negative = inhibition, actives largely listed as inhibitors; 0.28% of 350,000 active; note: potency is the fitted concentration of half-maximal effect; % is set by controls: 0 for no effect and ±100 for the full control effect; nearly all actives have a fitted effect of over 40% in size
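AlphaScreen read-out: signal falls as enzyme removes the 3' tyrosine-FITC from a 5'-biotinylated DNA oligo (15 nM, 5 min, RT). Enzyme was E. coli-made recombinant Tdp1 at 1 nM, exposed to compound for 15 min beforehand; beads 10 ug/ml, 10 min.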
TDP1 cell CPT = growth inhibition of DT40 Tdp1-/-;hTDP1 cells with camptothecin (screen for TDP1 inhibitors); 12% of 420,000 active; Potency, µM (titrated, usually from 46.2 µM), without a hit: at the highest dose activity change, negative = growth inhibition, most hits filed as inhibitors; AID 686979; chicken DT40 Tdp1-/-;hTDP1 cells + 20 nM CPT, ATP luminescence, 48 h; note: potency is the fitted concentration of half-maximal effect; % is set by controls: 0 for no effect and ±100 for the full control effect; nearly all actives have a fitted effect of over 55% in size
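Chicken DT40 Tdp1-/- cells stably complemented with human TDP1 were seeded at 400 cells/well in medium containing 20 nM camptothecin, exposed to pin-transferred compounds, and grown at 37 °C for at least 48 hr. Viability was read as ATP luminescence.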
uPA generation = cell surface uPA generation inhibition; cell surface uPA generation assay, qHTS; Potency, µM (top dose mostly 38.3 µM), for inactives: at the highest dose activity change, negative = inhibition, hits mostly inhibitors; 0.31% of 330,000 active; active = well fitted inhibition curve with a large enough effect; inconclusive = small, poorly fitted or top-dose-only effect; inactive = no such curve, though single readings can be large or run the other way; tested in mouse RAW 264.7 cells; note: potency is the fitted concentration of half-maximal effect; % is set by controls: 0 for no effect and ±100 for the full control effect; nearly all actives have a fitted effect of over 55% in size
DT40 TDP1 no CPT = qHTS for Inhibitors of human tyrosyl-DNA phosphodiesterase 1 (TDP1): qHTS in cells in absence of CPT; AID 686978, 2013; DT40 Tdp1-/- hTDP1 cells, no CPT, ATP luminescence, 48 h; Potency, µM (doses to about 46.2 µM), inactives show at the highest dose activity change, negative = growth inhibition, actives largely listed as inhibitors; 15% of 420,000 active; note: potency is the fitted concentration of half-maximal effect; % is set by controls: 0 for no effect and ±100 for the full control effect; nearly all actives have a fitted effect of over 55% in size
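Chicken DT40 Tdp1-/- cells complemented with human TDP1, screened without camptothecin (DMSO vehicle only), 400 cells/well. Compounds pin-transferred, cells incubated at 37 °C for at least 48 hr. Growth read as ATP-dependent luminescence (CellTiter-Glo, 30 min at RT).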
Active calls of the source: *; ? = inconclusive; nt = no result; [ ] = remark or other dose. Unless noted, calls come from the whole dose curve; as a rule, active = well fitted curve in the direction sought with a large enough effect; inconclusive = small, poorly fitted or top-dose-only effect, or another doubt; inactive = no such curve, though single readings can be large; an effect the other way counts as inactive or inconclusive.

mol | miR-21 reporter | TDP1 block | TDP1 cell CPT | uPA generation | DT40 TDP1 no CPT
COc1ccc2c(CN3CCN(Cc4ccccc4)CC3)cc(=O)oc2c1 | nt | nt | ? | nt | 23µM*
COc1ccccc1OCc1nnc(SCCN2CCOCC2)o1 | -8% | -7% | -4% | nt | -14%
Cc1c(NC(=O)NCc2ccccc2)c(=O)n(-c2ccccc2)n1C | -4% | 7% | -15% | nt | -7%
COc1cc2oc(=O)cc(CN3CCN(c4ccc(Cl)c(Cl)c4)CC3)c2cc1Cl | nt | nt | -3% | nt | -26%
COc1ccc2c(CN3CCN(c4ccc(Cl)c(Cl)c4)CC3)cc(=O)oc2c1 | nt | nt | 21µM* | nt | 13µM*
COc1ccc2c(CN(Cc3ccccc3)Cc3ccccc3)cc(=O)oc2c1 | nt | nt | 16µM* | nt | ?
CCOC(=O)CC1C(=O)NCCN1C(=S)NC(=O)c1ccccc1OC (stereo not given) | -3% | 1% | 6% | 14% | 5%
CC(C)C1C(=O)N(Cc2cn(CC3CCCCC3)nn2)CCS(=O)(=O)N1Cc1ccc(-c2ccc(Cl)nc2)cc1 (stereo not given) | nt | nt | 15µM* | nt | 10µM*
CC(C)C1C(=O)N(Cc2cn(Cc3ccco3)nn2)CCS(=O)(=O)N1Cc1ccc(-c2ccc(F)nc2)cc1 (stereo not given) | nt | nt | -8% | nt | -20%
CC(C)C1C(=O)N(Cc2cn(CC3CCCCC3)nn2)CCS(=O)(=O)N1Cc1ccc(-c2ccc(F)nc2)cc1 (stereo not given) | nt | nt | ? | nt | 13µM*
CCC/C=C/c1ccc(CN2C(CC(C)C)C(=O)N(Cc3cn(CC4CCCCC4)nn3)CCS2(=O)=O)cc1 (stereo not given) | nt | nt | ? | nt | 23µM*
CC(C)C1C(=O)N(Cc2cn(CC3CCCCC3)nn2)CCS(=O)(=O)N1Cc1ccc(-c2ccccc2)cc1 (stereo not given) | nt | nt | 13µM* | nt | 4.1µM*
COc1ccc(NC(=O)C2CC(=O)NC3=C2C(=O)CC(C)(C)C3)cc1 (stereo not given) | 0% | 1% | -13% | nt | -6%
COc1ccccc1NC(=O)CSc1nc2ccccc2c(=O)n1CC1CCCO1 (stereo not given) | -8% | nt | ? | 1% | ?
S=C(Nc1ccccc1)N1CCn2c(nc3ccccc32)C1 | 3% | -5% | 2% | 1% | -26%
CC(C)C1C(=O)N(Cc2cn(CC3CCCCC3)nn2)CCS(=O)(=O)N1Cc1ccc(-c2ccc(Cl)cc2)cc1 (stereo not given) | nt | nt | 9.2µM* | nt | 7.3µM*
CC(C)C1C(=O)N(Cc2cn(CC3CCCCC3)nn2)CCS(=O)(=O)N1Cc1ccc(-c2ccncc2)cc1 (stereo not given) | nt | nt | -30% | nt | ?
Cc1ccc(-c2ccc(CN3C(CC(C)C)C(=O)N(Cc4cn(CC5CCCCC5)nn4)CCS3(=O)=O)cc2)cc1 (stereo not given) | nt | nt | 21µM* | nt | 16µM*
Cc1ccc(-c2ccc(CN3C(C(C)C)C(=O)N(Cc4cn(CC5CCCCC5)nn4)CCS3(=O)=O)cc2)cc1 (stereo not given) | nt | nt | 12µM* | nt | 8.2µM*
CC(C)C1C(=O)N(Cc2cn(CC3CCCCC3)nn2)CCS(=O)(=O)N1Cc1ccc(-c2cccc(CO)c2)cc1 (stereo not given) | nt | nt | 18µM* | nt | 8.2µM*

(list continues)
Each structure is followed by: miR-21 reporter	TDP1 block	TDP1 cell CPT	uPA generation	DT40 TDP1 no CPT
> CC1C(=O)N(Cc2cn(CC3CCCCC3)nn2)CCS(=O)(=O)N1Cc1ccc(-c2ccncc2)cc1 (stereo not given)
    nt	nt	-30%	nt	-1%
> COC(=O)C1CCCCN1Cc1nc(N2CCCN(C(C)=O)CC2)c2ccccc2n1 (stereo not given)
    nt	nt	23%[9.04 µM]	nt	1%
> COc1ccc(CN(C(=O)c2ccc3c(c2)OCCO3)C(C(=O)NC2CCCCC2)c2ccc3ncccc3c2)cc1 (stereo not given)
    -10%	7%	?	-8%	18µM*
> O=C(NC1CCCCC1)C(c1ccc2ncccc2c1)N(Cc1ccccc1)C(=O)c1ccc2c(c1)OCCO2 (stereo not given)
    4%	8%	13µM*	6%	?
> Cc1ccc(C(C(=O)NC2CCCCC2)N(C(=O)CCCC(=O)Nc2ccccn2)c2ccc3c(c2)OCCO3)cc1 (stereo not given)
    -10%	-3%	-24%	9%	6%
> CC(C)CCNC(=O)CSc1nc2ccccc2c(=O)[nH]1
    1%	0%	-5%	nt	-8%
> CCOC(=O)N1CCN(C(=O)COc2ccc3c(c2)C(=O)CC(C)(C)O3)CC1
    1%	3%	-18%	-2%	0%
> COc1ccc(-c2nc(C#N)c(N3CCCCCC3)o2)cc1
    -19%	-6%	18µM*	5%	18µM*
> COc1ccc(-c2nc(C#N)c(N3CCCCC3)o2)cc1
    -10%	nt	-5%	6%	-26%
> COc1ccc(-c2nc(C#N)c(N3CCCCCC3)o2)cc1OC
    -13%	11%	15µM*	3%	11µM*
> CCOc1ccc(-c2nc(C#N)c(N3CCCCCC3)o2)cc1
    -15%	9%	21µM*	10%	?
> COc1ccc(-c2nc(C#N)c(N3CCC(C)CC3)o2)cc1
    -7%	nt	?	-2%	13µM*
> Brc1ccc2c(c1)c1cc(Br)ccc1n2CC1CO1 (stereo not given)
    nt	7%	nt	nt	nt
> COc1ccccc1OCc1nc(Cc2ccc(Cl)cc2)no1
    -13%	-5%	-9%	4%	-2%
> COCCCNC(=O)CS(=O)Cc1nc(-c2cccc(OC)c2)oc1C (stereo not given)
    -4%	-6%	0%	4%	2%
> O=C(CCc1ccccc1)C(=O)N1CCCC(C(=O)c2cccc(Cl)c2)C1 (stereo not given)
    -11%	-6%	?	-2%	?
> CC1(C(=O)Nc2ccc3c(c2)OCO3)CCN1C(=O)C1CCCCC1 (stereo not given)
    nt	nt	-12%	nt	-29%
> Cc1nc(SCC(=O)N(C)C2CCCCC2)[nH]c(=O)c1Cc1ccccc1
    -10%	-2%	-10%	-2%	-15%
> COc1ccccc1-c1nc(C#N)c(N2CCN(C(c3ccccc3)c3ccccc3)CC2)o1
    0%	-6%	16µM*	6%	23µM*
> N#Cc1nc(-c2ccc(F)cc2)oc1N1CCCC1
    -16%	2%	7.3µM*	0%	21µM*
> N#Cc1nc(-c2ccc(F)cc2)oc1N1CCCCC1
    -19%	nt	?	-1%	-4%
> CCCNC(=O)Cn1c(=O)n(C)c2ccccc21
    1%	8%	3%	17%	-2%
> CSc1ccccc1C(=O)C1CCCN(C(=O)c2ccc(N3CCOCC3)cc2)C1 (stereo not given)
    1%	0%	?	-2%	?

Compound profiles (already shown).
CC(C)CCNC(=O)CSc1nc2ccccc2c(=O)[nH]1 is listed with miR-21 reporter = 1%; TDP1 block = 0%; TDP1 cell CPT = -5%; uPA generation = nt; DT40 TDP1 no CPT = -8%
COc1ccc2c(CN(Cc3ccccc3)Cc3ccccc3)cc(=O)oc2c1 is listed with miR-21 reporter = nt; TDP1 block = nt; TDP1 cell CPT = 16µM*; uPA generation = nt; DT40 TDP1 no CPT = ?

Two of the compounds above, as labelled records.
N#Cc1nc(-c2ccc(F)cc2)oc1N1CCCCC1
  miR-21 reporter: -19%
  TDP1 block: nt
  TDP1 cell CPT: ?
  uPA generation: -1%
  DT40 TDP1 no CPT: -4%

CCCNC(=O)Cn1c(=O)n(C)c2ccccc21
  miR-21 reporter: 1%
  TDP1 block: 8%
  TDP1 cell CPT: 3%
  uPA generation: 17%
  DT40 TDP1 no CPT: -2%

Assay outcomes from PubChem.
